Results: PMC7188706 (Cancer Chemotherapy and Pharmacology, 2020)

Test: Plasma pharmacokinetics and drug monitoring of high-dose, pulsatile sorafenib (LC-MS/MS, non-compartmental)

For CNC(=O)c1cc(Oc2ccc(NC(=O)Nc3ccc(Cl)c(C(F)(F)F)c3)cc2)ccn1 [sorafenib], the “Cmax week 1, mean (± SD)” value (Cohort 1, 3 patients, fixed dose week 1 1000 mg) was 9089 (± 3281) μg/L and the “Cmax week 1, mean (± SD)” value (Cohort 4, 3 patients, fixed dose week 1 2800 mg) was 15,200 (± 1266) μg/L.
